US20080292736A1, “Bioavailability enhancing activity of carum carvi extracts and fractions thereof” (COUNCIL OF SCIENTIFIC AND INDUSTRIAL RESEARCH, priority 2001, published 2008)

Assay: Enhancement of bioavailability of drugs given to rats with bioenhancers (plasma drug level by HPLC)

- % Enhancement in bioavailability, BE from Zingiber officinale (drug with Zingiber officinale 50% alcoholic extract of fresh ginger 35 mg/kg, drug dose as in row): nil
- % Enhancement in bioavailability, Piperine as BE (drug with piperine 8 mg/kg, drug dose as in row): nil
- % Enhancement in bioavailability, Carum carvi (Cc) Frac 1. (nutraceutical with Carum carvi Fraction No. 1 15 mg/kg): nil
- % Enhancement in bioavailability, Carum carvi + Zingiber officinale, Frac 1. (Cc) (nutraceutical with Carum carvi Fraction No. 1 and Zingiber officinale): nil
- % Enhancement in bioavailability, Carum carvi + piperine, Frac 1. (Cc) (nutraceutical with Carum carvi Fraction No. 1 and piperine): nil
- % Enhancement in bioavailability, Carum carvi (Cc) Extr. (nutraceutical with Carum carvi extract 30 mg/kg): nil
- % Enhancement in bioavailability, Carum carvi + Zingiber officinale, Extr. (Cc) (nutraceutical with Carum carvi extract and Zingiber officinale): nil
- % Enhancement in bioavailability, Carum carvi + piperine, Extr. (Cc) (nutraceutical with Carum carvi extract and piperine): nil
Substance: Iron
